These are literature values, as cited in paper PMC10353187, “Discovery of a new potent oxindole multi-kinase inhibitor among a series of designed 3-alkenyl-oxindoles with ancillary carbonic anhydrase inhibitory activity as antiproliferative agents” (BMC Chemistry, 2023).

The subject of this data set is VEGFRII. To be noted: VEGFR-2, inhibitor co-crystallized in PDB ID: 4ASD; ref 4 (supplement); cited from earlier work.

As to `CNC(=O)c1cc(Oc2ccc(NC(=O)Nc3ccc(Cl)c(C(F)(F)F)c3)cc2)ccn1` [sorafenib], the concentration for half-maximal inhibition (IC50) (as a rule, the concentration that gives 50% inhibition) was 90 nM.
